1 substance from patent US5837843, “Modified protein C” (Oklahoma Medical Research Foundation, dated 1998) can be followed below.

Test [1] concerns the target human activated protein C (APC), wild type (human) (UniProt P04070).
In test [2] the target is APC-PT Gla (activated chimeric protein C with the Gla domain and hydrophobic stack of prothrombin) (human) (UniProt P04070).

Regarding human prothrombin (from UniProt P00734), the inhibition of factor Va inactivation by 1.4 µM prothrombin in the first stage in test [1] was 100 fold; in test [2], 5 fold.
